We go through 1 substance from publication PMC3747818.

By UniProt entry, the sequences of proteins in these tests, tags left out. Where a name states a change or a piece, a line headed by the entry shows the natural chain unless it says otherwise.
UniProt Q9Y4X5: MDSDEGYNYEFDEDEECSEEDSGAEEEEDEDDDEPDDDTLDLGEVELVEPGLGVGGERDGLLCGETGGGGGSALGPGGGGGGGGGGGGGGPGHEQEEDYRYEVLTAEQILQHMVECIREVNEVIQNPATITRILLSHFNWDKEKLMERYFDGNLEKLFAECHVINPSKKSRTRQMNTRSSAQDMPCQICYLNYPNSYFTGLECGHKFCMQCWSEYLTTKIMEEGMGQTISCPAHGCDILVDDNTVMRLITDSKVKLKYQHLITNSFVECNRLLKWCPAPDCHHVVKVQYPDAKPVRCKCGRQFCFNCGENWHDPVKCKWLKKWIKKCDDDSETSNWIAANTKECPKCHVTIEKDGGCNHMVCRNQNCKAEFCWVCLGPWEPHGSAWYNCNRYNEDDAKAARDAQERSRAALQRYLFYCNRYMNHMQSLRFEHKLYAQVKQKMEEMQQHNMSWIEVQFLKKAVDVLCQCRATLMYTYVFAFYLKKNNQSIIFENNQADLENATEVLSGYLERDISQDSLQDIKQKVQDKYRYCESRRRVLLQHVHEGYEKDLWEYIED
UniProt P68036, whole entry: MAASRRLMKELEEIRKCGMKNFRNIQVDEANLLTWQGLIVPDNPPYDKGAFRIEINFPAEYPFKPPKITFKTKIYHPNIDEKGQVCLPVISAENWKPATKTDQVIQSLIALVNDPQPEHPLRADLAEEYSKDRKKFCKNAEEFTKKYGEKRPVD

The test deals with HHARIΔAriadne (deletion mutant of HHARI lacking the Ariadne domain) (human) (UniProt Q9Y4X5). The test is described as follows: ITC. (In ITC the heat of successive injections is recorded.)

Broadly, the Kd is the constant that tells how readily two partners part at equilibrium. Read a low Kd as a tighter complex.

Substance “UbcH7 (from UniProt P68036 1-154) (enzyme)” gave a Kd of 190 nM.
